Measured values: ChEMBL document CHEMBL3425418, “Design, synthesis and biological evaluation of deuterated Tivozanib for improving pharmacokinetic properties” (Bioorg Med Chem Lett, 2015)

By UniProt entry, the sequences of proteins in these tests, tags left out.
UniProt P35916, whole entry: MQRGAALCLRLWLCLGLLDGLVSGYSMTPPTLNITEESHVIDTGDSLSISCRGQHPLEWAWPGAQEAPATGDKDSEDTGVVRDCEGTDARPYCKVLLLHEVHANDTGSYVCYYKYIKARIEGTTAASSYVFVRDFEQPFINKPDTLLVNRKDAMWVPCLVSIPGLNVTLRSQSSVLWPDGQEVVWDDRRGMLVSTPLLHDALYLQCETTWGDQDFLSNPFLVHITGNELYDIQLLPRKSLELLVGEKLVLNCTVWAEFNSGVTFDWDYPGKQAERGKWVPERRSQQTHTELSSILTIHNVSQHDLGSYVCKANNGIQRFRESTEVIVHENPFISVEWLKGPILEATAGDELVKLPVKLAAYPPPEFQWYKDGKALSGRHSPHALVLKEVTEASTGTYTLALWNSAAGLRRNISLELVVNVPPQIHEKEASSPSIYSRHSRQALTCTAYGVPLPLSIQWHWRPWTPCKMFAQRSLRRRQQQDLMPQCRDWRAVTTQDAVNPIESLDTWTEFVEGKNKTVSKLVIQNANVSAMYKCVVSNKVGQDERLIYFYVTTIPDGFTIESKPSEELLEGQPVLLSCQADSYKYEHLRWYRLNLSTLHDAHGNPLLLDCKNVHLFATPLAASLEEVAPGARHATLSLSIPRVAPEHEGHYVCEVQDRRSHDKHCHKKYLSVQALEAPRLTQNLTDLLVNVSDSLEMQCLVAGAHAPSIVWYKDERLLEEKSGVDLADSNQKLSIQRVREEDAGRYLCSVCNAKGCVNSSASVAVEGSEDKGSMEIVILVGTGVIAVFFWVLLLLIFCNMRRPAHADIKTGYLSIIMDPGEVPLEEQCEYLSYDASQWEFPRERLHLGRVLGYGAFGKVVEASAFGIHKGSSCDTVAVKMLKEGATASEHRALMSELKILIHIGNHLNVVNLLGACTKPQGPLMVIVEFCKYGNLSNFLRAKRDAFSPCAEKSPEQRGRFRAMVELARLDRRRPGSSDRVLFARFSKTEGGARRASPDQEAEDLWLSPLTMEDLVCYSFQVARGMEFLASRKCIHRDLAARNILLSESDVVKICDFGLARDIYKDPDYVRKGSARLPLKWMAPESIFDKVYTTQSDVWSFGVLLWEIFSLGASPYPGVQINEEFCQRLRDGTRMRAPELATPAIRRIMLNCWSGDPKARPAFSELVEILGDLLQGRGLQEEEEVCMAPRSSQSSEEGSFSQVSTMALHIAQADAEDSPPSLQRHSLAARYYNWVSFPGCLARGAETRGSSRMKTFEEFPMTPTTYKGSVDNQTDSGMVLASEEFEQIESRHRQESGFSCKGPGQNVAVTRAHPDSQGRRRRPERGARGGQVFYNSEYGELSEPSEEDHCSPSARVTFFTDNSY

Target: Vascular endothelial growth factor receptor 3 (Homo sapiens, UniProt P35916)

## COc1cc2nccc(Oc3ccc(NC(=O)Nc4cc(C)on4)c(Cl)c3)c2cc1OC [TIVOZANIB]
  IC50: 3.11 nM
